# scFv variants of Ab-14 (light chain) against a SARS-CoV-2 spike peptide

From the AlphaSeq antibody data of Li et al. 2023 (doi:10.1038/s41467-023-39022-2), copy in the FLAb collection.

Target: peptide PDVDLGDISGINAS, taken from heptad repeat 2 (HR2) of SARS-CoV-2 spike.

The variants keep the heavy chain, the linker and the frameworks of Ab-14 (scFv order VH, the linker GGGGSGGGGSGGGGS, VL).
VH: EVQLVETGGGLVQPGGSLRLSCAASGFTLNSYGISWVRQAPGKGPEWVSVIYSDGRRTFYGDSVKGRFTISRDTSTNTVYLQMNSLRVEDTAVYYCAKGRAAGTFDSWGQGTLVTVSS
VL: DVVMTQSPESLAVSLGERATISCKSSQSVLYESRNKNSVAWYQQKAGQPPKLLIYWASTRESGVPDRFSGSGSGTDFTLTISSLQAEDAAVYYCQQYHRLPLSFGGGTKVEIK

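This is the validation round: designs drawn from the data on random variants, tested in the same kind of assay. Their group label is 14L_En_HC (En: ensemble of fine-tuned language models; HC: hill climbing; a sequence that several methods proposed may carry one label only). The assay is AlphaSeq: two haploid yeast populations carry antibody and antigen on their surface. Pairs that bind mate more often; barcode pairs of the diploids are counted by sequencing. Read counts were normalised to the haploid input and turned into Kd by a linear fit to BCL2-family pairs of known affinity, for each replicate. There are six technical replicates.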

Each variant is given by its three light chain CDRs, as the data file delimits them; those of the parent are KSSQSVLYESRNKNSVA, WASTRES, QQYHRLPLS.
The read-out is the apparent dissociation constant on a log10 scale (nM): the lower, the stronger.
A mean of the replicates is given; it leaves out those without a signal.
Where no diploid with the target was found in that replicate, the entry reads "nd": below detection, most likely a poor binder, though not proof of it.
Values of this round are not directly comparable with the first-round values of the same sequences.

| CDR-L1 | CDR-L2 | CDR-L3 | log10 Kd (nM) by replicate | mean, log10 nM | signal with controls |
|---|---|---|---|---|---|
| TISQSAVMESHNKNNVA | DLNLRGS | QQYDRLPLS | 0.36 0.55 0.83 0.31 0.00 0.43 | 0.41 | 1/18 (1.71) |
| KVSDSSAFLSRNRNSVA | DNSTRGS | QQYHRLPLS | 0.82 0.59 0.59 0.72 0.95 1.00 | 0.78 | 1/18 (1.91) |
| KISMATTFESRNHNSVA | ENSTRES | QSYHRLPLS | nd nd nd nd nd 2.01 | 2.01 | 0/18 |
| MIAESVGYQSRQKNSVA | DNSTRED | QCYDRLPLS | 2.48 3.37 2.67 2.33 2.40 2.30 | 2.59 | 1/18 (2.73) |
| MISDLTMYGSLNKNSVA | DLSTRGS | QQYHRLPLS | 0.28 0.19 0.03 0.01 0.37 0.46 | 0.23 | 0/18 |
| KLSQYVGYESRNKSRVA | DNSTRES | QQYDRLPLS | 3.17 1.93 2.67 2.68 2.14 2.29 | 2.48 | 0/18 |
| KLAQSVNYLSRVMNSVA | DNSTRES | QQYFRLPLS | -0.07 -0.15 -0.18 -0.21 -0.16 -0.16 | -0.15 | 3/18 (4.07) |
| ILSQSVLGGYHNKNSVA | QTSERGQ | QQYDRLPLS | 0.65 0.60 0.60 0.59 0.68 0.64 | 0.63 | 0/18 |
| KLSMMYRYESENKNSIA | ELVTRMS | QQYHRLPLS | nd nd nd nd 0.82 nd | 0.82 | 0/18 |
| TISTSALYESINKNSVA | ELSTRGS | QQYERLPLS | nd 2.81 nd 2.21 nd nd | 2.51 | 1/18 (2.70) |
| KLYFNVGTVAHNTQSIA | DMERREE | QQYHRLPLS | nd nd nd nd nd nd | nd | 0/18 |
| TLTQSVQMESHNKNSVA | DLSTRGS | QQYHRLPLS | 0.16 0.12 0.15 0.15 -0.11 0.37 | 0.14 | 0/18 |
| TISESAQQESHNKNSVA | DLSVRGS | QQYHRLPLS | -0.10 0.22 -0.40 0.10 0.21 0.13 | 0.02 | 0/18 |
| SFSQQVLYESVHKNNVA | QTSTREE | QQYDHLPLS | 1.33 1.01 0.16 0.26 1.03 1.22 | 0.83 | 1/18 (2.95) |
| KLGSMVLLEYGAKNSIA | QQSTREE | QQYDRLPLS | 1.27 1.40 1.12 1.80 1.70 1.70 | 1.50 | 4/18 (2.90) |
| KLSQVTEYESHMKNNVA | DLTTRGS | QDYHRLPLS | 0.86 0.80 0.86 0.80 0.82 0.76 | 0.81 | 0/18 |
| KLSATYRYESQNKNSIA | EMSTRES | QCYHRLPLS | 1.59 1.43 0.48 0.36 1.93 1.63 | 1.24 | 0/18 |
| MISDLTMYGMRNVNSVA | DLSTRGS | QQYDRLPLS | 0.58 0.53 0.66 0.35 0.60 0.62 | 0.56 | 0/18 |
| KLRQSTGYESRNKDNIA | DNSTRGR | QQYHRLPLS | nd nd nd nd 4.16 2.81 | 3.49 | 0/18 |
| KLSVSYLFESLEKNSIA | ENSTREK | QHYHRLPLS | 1.07 2.36 1.91 1.37 0.75 1.46 | 1.49 | 1/18 (1.54) |
| TLTQSHGMESHNKNSVA | DLSTRGS | QQYHRLPLS | 0.53 0.53 0.15 0.51 0.32 0.67 | 0.45 | 2/18 (2.93) |
| NISELMYYQSRNKNNIA | EMSTRER | QHYHRLPLS | 0.13 0.06 0.17 0.09 0.09 0.19 | 0.12 | 3/18 (2.81) |
| KFGQMVLTGAYVSNSVA | QMSTRAN | QQYHRLPLM | 1.02 0.40 0.32 0.44 0.55 0.76 | 0.58 | 0/18 |
| KIMQSLNYEQFSVSNVA | GQETRER | QSYHRLPLS | 1.37 1.92 1.51 3.36 1.54 1.95 | 1.94 | 1/18 (3.75) |
| KLYALTMLESHDKNSIA | DLSTRGN | QQYHRLPLS | 0.59 0.51 0.68 0.21 0.42 0.64 | 0.51 | 1/18 (2.86) |
| TISTFMRYESSLKNAIA | NAQTRES | QQYHRLPIS | nd nd nd nd nd nd | nd | 0/18 |
| MITAMLRGVGRDKNSVA | NAQTREQ | QHYHRLPLS | nd 2.78 nd nd nd nd | 2.78 | 1/18 (1.75) |
| IITQSVMSESKNKRNVA | NTSEREP | QQYDRLPLI | 0.56 0.48 0.48 0.32 0.48 0.63 | 0.49 | 1/18 (2.71) |
| MISGSVMSESRLKNSVA | QTTTREY | QQYDRLPLS | 0.57 1.02 0.51 0.68 0.69 1.09 | 0.76 | 0/18 |
| KLYENVGTMSHNKQSIA | DMERRED | QQYHRLPLS | 0.41 0.22 0.18 -0.11 -0.06 0.28 | 0.15 | 1/18 (3.11) |
| TLVQSVMGGSRTKNSVA | NAEMRYD | QHYHRLPLS | 0.32 0.34 -0.07 -0.24 0.02 0.39 | 0.13 | 0/18 |
| KIMQTLNYSSFNVSNVA | GQETRER | QSYHRLPLS | 2.50 2.01 3.81 2.86 2.79 4.30 | 3.05 | 4/18 (2.73) |
| KISMLQRFQSNAKNNIA | EMNRREE | QQYHRLPLS | 0.57 0.99 0.64 0.08 0.84 0.81 | 0.66 | 0/18 |
| KIGGVTNGISRSTNSVA | EQSTRED | QQYNRLPLS | 0.60 0.18 0.39 0.49 0.50 0.50 | 0.44 | 2/18 (2.17) |
| KLRMSTAYLTENKNSVA | ELTTRGN | QQYFRLPLS | 0.66 0.40 0.40 0.12 0.32 0.40 | 0.39 | 0/18 |
| KISMLQRYESQNKNSIA | EMSRREN | QQYHRLPLA | 2.35 1.10 1.57 1.53 1.12 1.38 | 1.51 | 0/18 |
| KLGGVTEYEMRNVNSVA | QMTTRES | QQYHRLPLS | 0.62 0.23 0.08 0.19 0.47 0.71 | 0.38 | 2/18 (3.12) |
| KVSEMSAFLSSNRNNVA | DNSTRGS | QQYHRLPLS | 0.33 0.62 0.14 -0.01 0.47 0.59 | 0.35 | 0/18 |
| KLRQVTGYEEYLRNSVA | QMSTRAE | QDYHRLPLS | 0.63 0.39 0.58 0.39 0.43 0.96 | 0.56 | 3/18 (2.58) |
| KSLQSVLYESRNKNSVA | EASTRED | QQYHRLPLS | 0.42 0.93 0.52 -0.04 0.20 0.94 | 0.49 | 1/18 (2.84) |
| KLGQMVGYESRNKSRVA | DNSTRES | QQYDRLPLS | nd 2.09 2.84 2.38 nd 2.56 | 2.47 | 0/18 |
| KLSQFYRMESRNKNSVA | DNSTRES | QSYDRLPLS | nd nd nd nd 3.73 nd | 3.73 | 1/18 (3.76) |
| KLSLFYRLETRNKNSVA | DNSTRES | QDYDRLPLS | nd nd 2.03 2.41 nd 1.59 | 2.01 | 0/18 |
| QLLMATMQGTYNRNSVA | HAETREN | QSYHRLPLS | nd nd 1.84 nd 1.83 nd | 1.83 | 1/18 (2.16) |
| MFSSLMEYGSRYRNSVA | QASVREN | QQYHWLPLS | 2.64 nd 2.48 2.33 2.26 2.11 | 2.36 | 1/18 (2.34) |
| KVSEMMAFLSRNRNSVA | DNSTRGS | QQYHRLPLS | 0.93 0.78 0.33 1.19 0.70 0.48 | 0.74 | 1/18 (1.76) |
| QLLMATMQGNYNRNSVA | HAQTRND | QSYHRLPLS | 1.34 1.37 1.15 1.58 1.34 1.46 | 1.37 | 2/18 (4.15) |

From the list, the first 2 with no signal in any replicate:

CDR-L1	CDR-L2	CDR-L3	log10 Kd (nM) by replicate	mean, log10 nM	signal with controls
KLYFNVGTVAHNTQSIA	DMERREE	QQYHRLPLS	nd nd nd nd nd nd	nd	0/18
TISTFMRYESSLKNAIA	NAQTRES	QQYHRLPIS	nd nd nd nd nd nd	nd	0/18

Three control strains display no target. For all light chain designs, 4% of the pairings with them gave a signal, with a median of 2.64 and one signal in twenty below 1.59, so weak values seen in few replicates may be background. For each scFv, signals with the empty controls are counted beside the result, with their mean in brackets.
The authors averaged sequences with at least three values out of six and counted those with two or fewer as poor binders.